Source: patent US11339157B1, “4H-pyrrolo[3,2-c]pyridin-4-one derivatives” (Bayer Aktiengesellschaft, priority 2017, dated 2022)
pIC50: −log10 of the molar value. Like-named read-outs stand apart in the source and are kept apart here.

The chains behind the UniProt entries cited, without tags or fusion partners. A line that says so, or that is headed by a name, gives the form on record, which may keep a tag or linker.
UniProt P00533, with tags, fused parts or gaps INS767SVD limits assumed: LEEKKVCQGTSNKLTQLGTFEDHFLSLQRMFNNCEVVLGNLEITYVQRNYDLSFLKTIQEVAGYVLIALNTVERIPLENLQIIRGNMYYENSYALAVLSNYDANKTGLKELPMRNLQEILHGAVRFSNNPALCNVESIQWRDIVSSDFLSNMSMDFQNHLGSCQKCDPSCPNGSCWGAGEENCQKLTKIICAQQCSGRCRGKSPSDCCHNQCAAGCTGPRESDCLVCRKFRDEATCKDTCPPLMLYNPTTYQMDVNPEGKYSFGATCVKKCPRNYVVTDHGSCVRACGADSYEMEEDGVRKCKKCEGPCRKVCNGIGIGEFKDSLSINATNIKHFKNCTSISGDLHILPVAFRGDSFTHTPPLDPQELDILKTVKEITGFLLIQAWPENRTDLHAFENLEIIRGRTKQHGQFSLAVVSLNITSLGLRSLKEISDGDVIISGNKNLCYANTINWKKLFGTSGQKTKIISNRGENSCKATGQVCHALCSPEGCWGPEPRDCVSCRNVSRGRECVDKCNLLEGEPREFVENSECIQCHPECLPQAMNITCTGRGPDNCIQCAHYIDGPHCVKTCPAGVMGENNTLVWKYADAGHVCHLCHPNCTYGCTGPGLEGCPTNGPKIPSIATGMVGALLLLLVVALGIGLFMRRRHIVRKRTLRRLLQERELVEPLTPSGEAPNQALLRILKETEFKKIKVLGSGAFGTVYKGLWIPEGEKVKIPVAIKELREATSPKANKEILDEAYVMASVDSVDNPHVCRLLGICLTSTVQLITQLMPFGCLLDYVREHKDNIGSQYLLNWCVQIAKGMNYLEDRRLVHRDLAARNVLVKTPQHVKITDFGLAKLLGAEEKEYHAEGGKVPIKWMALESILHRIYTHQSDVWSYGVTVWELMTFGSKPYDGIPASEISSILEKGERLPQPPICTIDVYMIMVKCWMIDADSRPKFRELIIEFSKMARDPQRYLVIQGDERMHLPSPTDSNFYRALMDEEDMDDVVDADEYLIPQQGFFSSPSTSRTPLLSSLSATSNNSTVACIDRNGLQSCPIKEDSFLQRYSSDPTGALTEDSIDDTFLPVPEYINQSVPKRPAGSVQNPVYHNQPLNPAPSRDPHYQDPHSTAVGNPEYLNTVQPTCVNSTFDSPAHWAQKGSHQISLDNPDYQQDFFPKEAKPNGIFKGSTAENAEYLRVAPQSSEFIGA

How the values were obtained:
[1] = system: Ba/F3-EGFR-insSVD cells; assay: Proliferation assay in BA/F3 (ins SVD) cells (Cell Titer-Glo); assay type: cell-based; conditions: read-out: BA/F3 (insSVD) IC50
[2] = system: Ba/F3-EGFR-WT cells; assay: Proliferation assay in BA/F3 (wild type) cells (Cell Titer-Glo); assay type: cell-based; conditions: read-out: BA/F3 (wild type) IC50
[3] = molecular target: EGFR ins SVD (insertion of SVD between D770 and N771) (Homo sapiens, UniProt P00533, INS767SVD); assay: Exon 20-Mutant-EGFR(D770_N771insSVD) kinase assay (TR-FRET); assay type: biochemical; conditions: read-out: mutEGFR (D770_N771insSVD) kinase assay IC50; Table 9
[4] = Table 11, prior art examples of WO2016/120196

Row | pIC50 [1, 4] | pIC50 [2, 4] | SMILES | pIC50 ([1]; Table 10, proliferation, plated without EGF, 48 h) | pIC50 ([2]; Table 10, proliferation, plated with 10 ng/mL EGF, 48 h) | pIC50 [3]
1 | < 5.70 | 5.39 | COCCOc1cnccc1-c1[nH]c2c(c1Nc1ccc(F)c(F)c1)C(=O)NCC2 | – | – | –
2 | < 5.70 | 5.23 | O=C1NCCc2[nH]c(-c3ccncc3OCC3CC3)c(Nc3ccc(F)cc3)c21 | – | – | –
3 | – | – | Cc1c(F)cccc1Nc1c(-c2ccncc2OCC2CCOC2)[nH]c2c1C(=O)NCC2 (stereo not drawn) | 6.84 | 5.65 | 9.28
4 | < 5.70 | 5.30 | O=C1NCCc2[nH]c(-c3ccncc3OCC(F)F)c(Nc3cccc(F)c3)c21 | – | – | –
